Target: Mu-type opioid receptor (Homo sapiens, UniProt P35372)
Test: Binding affinity to MOR (unknown origin)

By UniProt entry, the sequences of proteins in these tests, tags left out.
UniProt P35372, whole entry: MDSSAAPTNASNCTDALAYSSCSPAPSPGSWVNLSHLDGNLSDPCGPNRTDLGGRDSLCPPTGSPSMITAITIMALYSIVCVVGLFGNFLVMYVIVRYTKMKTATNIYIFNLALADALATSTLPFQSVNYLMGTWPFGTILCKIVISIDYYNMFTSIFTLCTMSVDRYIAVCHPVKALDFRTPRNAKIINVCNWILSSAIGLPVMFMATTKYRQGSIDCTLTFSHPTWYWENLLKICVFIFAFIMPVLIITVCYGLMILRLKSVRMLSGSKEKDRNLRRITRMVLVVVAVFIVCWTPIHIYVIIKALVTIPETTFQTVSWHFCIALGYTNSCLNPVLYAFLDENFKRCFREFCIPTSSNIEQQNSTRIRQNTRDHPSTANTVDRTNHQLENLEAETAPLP

Question: For C[C@@H](NC(=O)[C@@H](N)Cc1ccc(O)cc1)C(=O)NCC(=O)N[C@@H](Cc1ccccc1)C(=O)NNC(=O)[C@H](Cc1ccccc1)NC(=O)CNC(=O)[C@@H](C)NC(=O)[C@@H](N)Cc1ccc(O)cc1 [BIPHALIN], which Ki is on record?
Answer: 12 nM

Source: ChEMBL document CHEMBL4118237 (Bioorg Med Chem, 2018)
